Measured affinities in a library of Ab-14 light chain variants

Target peptide (SARS-CoV-2 spike, HR2 region): PDVDLGDISGINAS

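Phage display of a naive human antibody library on the peptide gave the parent. These sequences belong to a second round, designed from the earlier measurements on random variants of the parent. Their group label is 14L_GP_Gibbs (GP: Gaussian process model; Gibbs: Gibbs sampling; a sequence that several methods proposed may carry one label only). Affinity was read by AlphaSeq, a pooled yeast mating assay with surface-displayed partners. Pairs that bind mate more often; barcode pairs of the diploids are counted by sequencing. Read counts were normalised to the haploid input and turned into Kd by a linear fit to BCL2-family pairs of known affinity, for each replicate. Each pool was mated in six replicate cultures.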

The variants keep the heavy chain, the linker and the frameworks of Ab-14 (scFv order VH, three GGGGS repeats, VL).
VH: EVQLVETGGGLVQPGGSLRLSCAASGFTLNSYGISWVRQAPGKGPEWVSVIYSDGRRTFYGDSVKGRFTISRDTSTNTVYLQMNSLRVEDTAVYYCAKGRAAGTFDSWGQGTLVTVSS
VL: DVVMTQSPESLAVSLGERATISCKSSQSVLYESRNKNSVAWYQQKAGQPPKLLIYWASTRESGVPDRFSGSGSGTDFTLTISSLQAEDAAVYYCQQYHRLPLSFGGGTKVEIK

Each variant is given by its three light chain CDRs, as the data file delimits them; those of the parent are KSSQSVLYESRNKNSVA, WASTRES, QQYHRLPLS. Numbers give log10(Kd / nM), so 0 is 1 nM and 3 is 1 µM. Smaller is tighter. "ND" marks a missing value. The strain was present, yet no cells mated with the target were sequenced in that replicate, which points to weak or no binding.

CDR-L1,CDR-L2,CDR-L3,log10 Kd (nM) by replicate,signal with controls
KSAASELLESRNKNSVA,SASTRES,QQYHRLPLS,0.34 / -0.07 / -0.13 / -0.22 / -0.18 / 0.13,1/18 (2.83)
KISQDYWYESRNKNSVA,QASTREV,QQYHRLPLS,0.02 / -0.44 / -0.31 / -0.50 / -0.41 / 0.02,3/18 (4.07)
KVEQSVLYESRNKNAVA,QGSTRES,QQYHRLPLH,0.05 / -0.11 / -0.13 / -0.08 / -0.11 / -0.01,2/18 (3.22)
KIQQEGEYEDRNKNSVA,SASTRCP,QQYHRLPLS,0.21 / -0.32 / -0.20 / 0.19 / -0.02 / -0.28,0/18
KSAYSEGYESRNKNSVA,DASTRSS,QQYHRLPLS,0.30 / 0.21 / 0.13 / 0.04 / 0.21 / 0.25,0/18
KVSYSNPYETRNKNSVA,EASTREE,QQYHRLPLS,0.04 / -0.04 / -0.13 / -0.17 / -0.21 / 0.32,1/18 (2.94)
KFSQSELYEERNQNSVA,GASTRLE,QQYHRLPLS,0.66 / 0.37 / 0.27 / -0.01 / 0.37 / 0.38,0/18
KVQQSVPYEDRNKNSVA,EASTRCS,QDYHRLPLS,0.39 / 0.48 / 0.15 / 0.06 / 0.16 / 0.44,5/18 (3.58)
KSGQSFLYESRNKNSVA,GASMREE,QQYHRLPLS,0.19 / 0.15 / 0.13 / 0.29 / 0.23 / 0.37,1/18 (2.48)
KVSQLDNGESRNHNSVA,HASTRSS,QQYHRLPLS,0.33 / -0.20 / -0.08 / 0.51 / -0.03 / 0.33,0/18
KLEQSVEMESRWKNSVA,HASTRES,QQYHRLPLS,0.83 / 1.11 / 0.78 / 0.97 / 1.17 / 1.00,1/18 (2.89)
KLSQSGLYGQRNKMSVA,QASQRES,QQYHRLPLS,0.48 / 0.54 / 0.56 / 0.42 / 0.50 / 0.30,2/18 (2.45)
KLSQSQEYESRNKNSVA,DATQRLS,QQYHRLPLS,-0.23 / -0.44 / -0.40 / -0.48 / -0.50 / -0.25,5/18 (3.45)
ALSMSELMESRNWNSVA,HASTREE,QQYHRLPLS,0.20 / -0.06 / 0.04 / -0.06 / 0.09 / 0.03,1/18 (2.97)
KFQQSVGYETRNKNSVA,EASQRES,QQYHRLPLS,-0.01 / -0.06 / -0.05 / -0.09 / -0.20 / 0.17,2/18 (2.85)
KLQQWHLYESRMKNSVA,HASERES,QCYHRLPLS,0.68 / 1.27 / 1.11 / 1.80 / 1.33 / 1.04,0/18
KLQMQMLYESRMKNSVA,DASQRES,QQYHRLPLS,0.08 / 0.34 / 0.22 / 0.22 / 0.49 / 0.42,2/18 (1.65)
KTYVSHLYESRNKNSVA,QASERES,QQYHRLPLS,0.24 / -0.34 / -0.21 / -0.23 / -0.28 / 0.03,3/18 (2.68)
KLMGSSLYDSRNKNSVA,NASTREW,QQYHRLPLS,0.38 / 0.26 / 0.03 / 0.15 / 0.28 / 0.43,0/18
KMSESELYEDRNQNSVA,SASQRLS,QQYHRLPLS,0.06 / 0.23 / 0.26 / 0.38 / 0.50 / 0.27,0/18
KLQQSELYESRNTNSVA,GASTRLE,QQYHRLPLS,-0.02 / -0.13 / -0.26 / -0.31 / -0.17 / -0.04,2/18 (3.02)
KAQWLWPYWSRNWNSVA,NASYREQ,QQYHRLPLS,0.42 / 0.22 / -0.29 / -0.11 / 0.22 / 0.38,1/18 (2.60)
KLYQSEWYESRMCNNVA,NASVRES,QQYHRLPLS,1.14 / 1.42 / 1.04 / 1.08 / 1.19 / 1.11,3/18 (3.17)
KLYQSQLYESRNKNSVA,QASHREM,QQYHRLPLS,1.23 / 0.78 / 0.55 / 0.65 / 0.56 / 0.57,1/18 (4.18)
KCMGSSLYESRNKNSVA,NASTREV,QQYHRLPLS,-0.14 / -0.14 / -0.50 / -0.37 / -0.27 / -0.30,1/18 (4.32)
KFPQSNGYETRNKNSVA,EASQREQ,QQYHRLPLS,-0.07 / -0.31 / -0.21 / -0.29 / -0.15 / -0.11,0/18
KLSYSELYEDRNKNSVA,NASQREQ,QQYHRLPLS,-0.22 / -0.12 / -0.14 / -0.68 / -0.54 / -0.54,0/18
KFSQSWGMESRNKNSVA,NASTRMS,QQYHRLPLS,-0.07 / 0.07 / -0.11 / -0.12 / -0.16 / 0.03,1/18 (3.15)
KLSQSELYESRCANSVA,NASTRCE,QQYHRLPLS,1.67 / 1.51 / 1.03 / 1.39 / 1.34 / 0.86,0/18
KLEQSTSYESRNCNSVA,NASVRES,QQYHRLPLS,0.70 / 0.57 / 0.65 / 0.51 / 0.69 / 0.75,1/18 (2.47)
KASQSQDYESRNSKSVA,DASTRLS,QQYHRLPLS,0.07 / -0.27 / -0.17 / -0.35 / -0.27 / -0.22,4/18 (2.40)
KISQSYLYEDRNHWSVA,NASTRLS,QQYHRLPLS,0.66 / -0.02 / 0.11 / 0.25 / -0.02 / 0.07,1/18 (2.33)
KSSPSYLYEDRAFNSVA,HASTRES,QQYHRLPLS,0.25 / 0.15 / 0.19 / 0.21 / 0.80 / 1.23,1/18 (1.43)
KLDGSDQYESRNKNSVA,DASTRES,QQYHRLPLS,-0.17 / 0.25 / -0.40 / 0.01 / -0.07 / 0.23,0/18
KMSQAWWYESRMKWSVA,NASEREQ,QQYHRLPLS,0.49 / 0.47 / 0.39 / 0.40 / 0.50 / 0.25,4/18 (2.51)
KLSMEHGYESRNKNSVA,QASQREE,QQYHRLPLS,0.19 / -0.15 / 0.38 / 0.12 / 0.07 / 0.02,0/18
ILWQSQLYESRNKNSVA,NASKREM,QQYHRLPLS,1.42 / 0.92 / 0.73 / 1.04 / 1.13 / 1.14,0/18
KMSQSQLYEERASNAVA,HASQRES,QQYHRLPLS,0.41 / 0.33 / 0.35 / 0.24 / 0.53 / 0.84,1/18 (1.90)
KVSQSVLQQSRNSNSVA,EASTREA,QQYHRLPLS,0.15 / 0.08 / -0.05 / 0.00 / 0.01 / 0.10,1/18 (3.74)
KLYQSEGYESRMKNNVA,NASLRES,QQYHRLPLS,-0.11 / -0.04 / -0.23 / -0.18 / -0.29 / 0.03,3/18 (3.04)
KSSISVEYQDRLSNSVA,QASQRES,QQYHRLPLS,0.30 / 0.14 / 0.29 / 0.01 / 0.11 / 0.26,1/18 (2.09)
KVPGENDYESRNKNSVA,EASTRES,QDYHRLPLS,0.72 / 1.12 / 1.06 / 1.67 / 0.86 / 1.13,1/18 (3.32)
KMSQSALMESRNWNSVA,NASKRES,QQYHRLPLS,0.32 / 0.18 / 0.12 / 0.10 / 0.01 / 0.30,1/18 (2.98)
KLSQSQLYESRNSNSVA,NGSTRES,QDYHRLPLS,0.32 / 0.34 / 0.28 / 0.14 / 0.48 / 0.63,1/18 (3.23)
KYSTSELEESRNKNSVA,WASTREL,QQYHRLPLS,ND / 3.06 / ND / 2.87 / ND / 3.40,0/18
KQQGGQDYESRNDNSVA,DASLRES,QQYHRLPLS,1.05 / 1.04 / 0.95 / 0.89 / 1.45 / 1.59,0/18
KLSQSQEYESRNKNSVA,DATQRES,QQYHRLPLS,0.17 / -0.09 / 0.54 / 0.06 / 0.04 / 0.18,1/18 (1.83)
KLMQSMGYEQRNFNSVA,QASQRSS,QQYHRLPLS,0.56 / 0.58 / 0.92 / 0.34 / 0.70 / 0.63,0/18

Picked from the list: the 7 lowest averages where every replicate gave a value.

| CDR-L1 | CDR-L2 | CDR-L3 | log10 Kd (nM) by replicate | signal with controls |
|---|---|---|---|---|
| KLSQSQEYESRNKNSVA | DATQRLS | QQYHRLPLS | -0.23 / -0.44 / -0.40 / -0.48 / -0.50 / -0.25 | 5/18 (3.45) |
| KLSYSELYEDRNKNSVA | NASQREQ | QQYHRLPLS | -0.22 / -0.12 / -0.14 / -0.68 / -0.54 / -0.54 | 0/18 |
| KCMGSSLYESRNKNSVA | NASTREV | QQYHRLPLS | -0.14 / -0.14 / -0.50 / -0.37 / -0.27 / -0.30 | 1/18 (4.32) |
| KISQDYWYESRNKNSVA | QASTREV | QQYHRLPLS | 0.02 / -0.44 / -0.31 / -0.50 / -0.41 / 0.02 | 3/18 (4.07) |
| KASQSQDYESRNSKSVA | DASTRLS | QQYHRLPLS | 0.07 / -0.27 / -0.17 / -0.35 / -0.27 / -0.22 | 4/18 (2.40) |
| KFPQSNGYETRNKNSVA | EASQREQ | QQYHRLPLS | -0.07 / -0.31 / -0.21 / -0.29 / -0.15 / -0.11 | 0/18 |
| KLQQSELYESRNTNSVA | GASTRLE | QQYHRLPLS | -0.02 / -0.13 / -0.26 / -0.31 / -0.17 / -0.04 | 2/18 (3.02) |

The range of this assay differs from that of the first round, and the authors advise against merging the two. Three control strains display no target. For all light chain designs, 4% of the pairings with them gave a signal, with a median of 2.64 and one signal in twenty below 1.59, so weak values seen in few replicates may be background. For each scFv, signals with the empty controls are counted beside the result, with their mean in brackets. In the paper, a design with two or fewer of six values counts as a poor binder.

Data: MIT Lincoln Laboratory AlphaSeq set, Li et al. 2023, doi:10.1038/s41467-023-39022-2, as distributed in FLAb.